The chains behind the UniProt entries cited, without tags or fusion partners.
UniProt O43614, whole entry: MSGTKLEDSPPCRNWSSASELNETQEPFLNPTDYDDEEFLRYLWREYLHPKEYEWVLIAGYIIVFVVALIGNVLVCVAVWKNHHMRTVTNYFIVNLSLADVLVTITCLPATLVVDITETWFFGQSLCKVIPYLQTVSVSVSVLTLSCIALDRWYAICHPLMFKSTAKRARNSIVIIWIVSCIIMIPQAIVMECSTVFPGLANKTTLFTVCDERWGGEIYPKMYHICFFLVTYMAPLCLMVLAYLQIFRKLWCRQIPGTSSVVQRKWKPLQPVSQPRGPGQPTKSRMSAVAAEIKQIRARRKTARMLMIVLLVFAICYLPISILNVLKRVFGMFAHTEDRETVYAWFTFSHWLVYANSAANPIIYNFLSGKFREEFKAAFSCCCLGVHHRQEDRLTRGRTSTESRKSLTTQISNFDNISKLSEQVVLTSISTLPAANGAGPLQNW

In patent US7932269B2, “Sulfonamides as orexin antagonists” (Hoffmann-La Roche Inc., priority 2008, dated 2011):

Target: human orexin-2 (hOX2) receptors (Homo sapiens, UniProt O43614)
Assay: Intracellular Ca2+ mobilization assay (FLIPR), orexin-A as agonist
Settings: read-out: Kb (μM) OX2R (human); CHO(dHFr-) cells stably expressing hOX2; antagonist applied 25 min before EC80 of orexin-A; Kb=IC50/(1+[A]/EC50)
Method: Intracellular Ca^2+ Mobilization Assay
The Chinese Hamster Ovary (dHFr-) mutant cell line stably expressing human orexin-1 (hOX1) or human orexin-2 (hOX2) receptors were maintained in Dulbecco's Modified Eagle Medium (1X) with GlutaMax™ 1, 4500 mg/L D-Glucose and Sodium Pyruvate (Catalog No. 31966-021, Invitrogen, Carlsbad, Calif.), 5% dialyzed fetal calf serum (Catalog No. 26400-044), 100 μg/ml penicillin and 100 μg/ml streptomycin. The cells were seeded at 5×10^4 cells/well in the poly-D-lysine treated, 96-well, black/clear-bottomed plates (Catalog No. BD356640, BD Biosciences, Palo Alto, Calif.). […] The cells were washed five times with FLIPR buffer to remove excess dye and intracellular calcium mobilization, [Ca^2+] were measured using a Fluorometric Imaging Plate Reader (FLIPR-96, Molecular Devices, Menlo Park, Calif.) as described previously (Malherbe et al., Mol. Pharmacol., 64, 823-832, 2003). […] The EC50 and EC80 values of orexin-A were measured daily from standard agonist concentration-response curves in CHO(dHFr-)-OX1R and —OX2R cell lines. […] Inhibition curves were determined by addition of 11 concentrations (0.0001-10 μM) of inhibitory compounds and using EC80 value of orexin-A as agonist (a concentration which gave 80% of max agonist response, determined daily). […]

O=C(CN(c1ccc(Cl)cc1)S(=O)(=O)c1ccc(F)cc1)N1CCCC1c1ccccc1 (centres unmarked)
Kb: 0.0014 µM

O=C(CN(c1ccc(Cl)cc1)S(=O)(=O)c1cccc(F)c1)N1CCCC1c1ccccc1 (centres unmarked)
Kb: 0.003 µM
